Experimental data taken from publication PMC5947317 (ACS chemical biology, 2017).

Legend:
UCHL1 [1] = target: T1, UCHL1 (Homo sapiens, UniProt P09936); test: Ub-AMC assay with recombinant UCHL1; type: biochemical; details: UCHL1 versus UCHL3, UCHL5, USP2 catalytic core, USP15
T1 sequence (P09936 1-223): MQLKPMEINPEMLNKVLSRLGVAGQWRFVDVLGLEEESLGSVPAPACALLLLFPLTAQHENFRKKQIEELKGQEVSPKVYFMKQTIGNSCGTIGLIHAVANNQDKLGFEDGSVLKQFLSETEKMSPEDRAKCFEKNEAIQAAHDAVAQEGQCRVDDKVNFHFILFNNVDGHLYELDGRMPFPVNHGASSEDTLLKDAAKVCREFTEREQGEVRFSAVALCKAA

UCHL1 [2] = target: T1, UCHL1; test: Rapid dilution reversibility assay; type: biochemical; details: incubated at ten times IC50, diluted 100-fold; normalized to DMSO

CO[C@H]1/C=C/O[C@@]2(C)Oc3c(C)c(O)c4c(O)c(c(/C=N/N5CCN(C)CC5)c(O)c4c3C2=O)NC(=O)/C(C)=C\C=C\[C@H](C)[C@H](O)[C@@H](C)[C@@H](O)[C@@H](C)[C@H](OC(C)=O)[C@@H]1C [rifampicin, reference compound]
selectivity among UCHs and USPs tested (UCHL1 [1]): more promiscuous inhibitors
recovered UCHL1 activity after rapid dilution (UCHL1 [2]): > 80%
